# Reference: patent publication US20060073528A1, “Measurement methods” (priority 2004, published 2006)
# Experiment: Sample stability of DM1-related impurities with DS-DM1-deJ591 in the autosampler (Hisep RP-HPLC)
smiles,measurement,setting,value
S=c1cccc[nH]1 [mercaptopyridine],% remaining area counts relative to t = 0 h,t = 12 h,101.35%
same,% remaining area counts relative to t = 0 h,t = 24 h,101.13%
